# Results taken from ChEMBL document CHEMBL3085628, “Identification of CB1/CB2 ligands from Zanthoxylum bungeanum” (J Nat Prod, 2013).
# Protein sequences, listed by entry. Tags and fused reporters are not part of them.
# UniProt P34972, whole entry: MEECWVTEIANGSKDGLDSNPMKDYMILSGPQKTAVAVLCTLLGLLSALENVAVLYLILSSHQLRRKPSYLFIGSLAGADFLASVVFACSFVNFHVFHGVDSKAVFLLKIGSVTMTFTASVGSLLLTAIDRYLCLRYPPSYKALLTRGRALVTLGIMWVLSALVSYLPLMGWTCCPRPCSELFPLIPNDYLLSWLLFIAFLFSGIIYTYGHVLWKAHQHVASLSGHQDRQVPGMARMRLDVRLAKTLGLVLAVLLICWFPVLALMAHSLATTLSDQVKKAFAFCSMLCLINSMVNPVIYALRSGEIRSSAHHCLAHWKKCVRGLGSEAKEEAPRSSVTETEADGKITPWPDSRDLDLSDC
# UniProt P21554, whole entry: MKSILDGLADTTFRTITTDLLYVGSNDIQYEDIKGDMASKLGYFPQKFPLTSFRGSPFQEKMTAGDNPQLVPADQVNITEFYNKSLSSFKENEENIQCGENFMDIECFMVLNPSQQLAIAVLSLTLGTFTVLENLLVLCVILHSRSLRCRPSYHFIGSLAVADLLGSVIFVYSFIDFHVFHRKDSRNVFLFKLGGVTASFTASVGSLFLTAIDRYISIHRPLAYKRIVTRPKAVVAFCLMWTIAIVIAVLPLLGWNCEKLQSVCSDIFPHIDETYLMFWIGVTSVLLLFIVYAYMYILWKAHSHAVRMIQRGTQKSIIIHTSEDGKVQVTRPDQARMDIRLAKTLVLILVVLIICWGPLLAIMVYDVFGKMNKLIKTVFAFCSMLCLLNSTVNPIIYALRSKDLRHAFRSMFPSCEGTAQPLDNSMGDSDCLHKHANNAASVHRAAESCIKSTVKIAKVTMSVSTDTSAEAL
# Legend:
# [1] = target: Cannabinoid receptor 2 (Homo sapiens, UniProt P34972); test: Inhibition of human CB2 receptor internalization expressed in CHO cells assessed as inhibition of [3H]-CP55940 uptake preincubated for 1 hr followed by radioligand addition measured after 1 hr by liquid scintillation counting analysis relative to control; format: cell-based; design: concentration or dose not given beside the values; conditions: concentration not given here
# In short: (§1)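 CHO cells stably expressing human CB1 or CB2 grown 24 h at 2.0 × 10^5 cells/mL in DMEM/F12 with 10% FBS. They were preincubated 1 h with serial dilutions (top 5.0 μM for CB1, 10 μM for CB2; DMSO <0.1% final), then given 1 h 10 nM [3H]-Win 55,212-2 (CB1) or 2 nM [3H]-CP 55,940 (CB2). Cells were washed, NaOH-lysed and scintillation-counted. Uptake normalized to no-compound wells; sigmoid fit; mean ± SE, n = 6.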
# [2] = target: Cannabinoid receptor 1 (Homo sapiens, UniProt P21554); test: Inhibition of human CB1 receptor internalization expressed in CHO cells assessed as inhibition of [3H]-Win55212-2 uptake preincubated for 1 hr followed by radioligand addition measured after 1 hr by liquid scintillation counting analysis relative to control; format: cell-based; design: concentration or dose not given beside the values; conditions: concentration not given here; in short: as §1
# [3] = species on record: Homo sapiens; test: Selectivity ratio of IC50 for human CB1 receptor to IC50 for human CB2 receptor
Structure (SMILES),inhibition [1] [%],inhibition [2] [%],Ratio IC50 [3]
C/C=C/C=C/C=C/CC/C=C/C(=O)NCC(C)(C)O,43,40,0.07
C/C=C/C=C/C=C\CC/C=C/C(=O)NCC(C)(C)O,29,29,1250
